Measured values: patent US12319685B2

Chains of the proteins cited; added tags and fusions are not shown. Residues count along the entry.
UniProt Q96P20, 1-93 limits assumed: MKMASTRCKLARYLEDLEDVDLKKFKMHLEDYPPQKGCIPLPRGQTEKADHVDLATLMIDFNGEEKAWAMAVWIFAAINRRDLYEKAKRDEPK
UniProt Q9ULZ3, 1-91 limits assumed: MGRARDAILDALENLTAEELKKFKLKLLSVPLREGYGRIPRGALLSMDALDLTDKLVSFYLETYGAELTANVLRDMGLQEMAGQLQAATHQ

Columns and labels:
[1] = target: NLRP3^PYD/fSAH-POP1-12 PPI (Homo sapiens, UniProt Q96P20); assay: FP competitive inhibition assay, NLRP3^PYD/fSAH-POP1-12 PPI; conditions: read-out: Ki to disrupt the NLRP3^PYD/fSAH-POP1-12 PPI; 3 μM human NLRP3, 5 nM fluorescein-labeled fSAH-POP1-12, 1% DMSO; Ki derived from IC50
Experimental: (§1) FP Competitive Inhibition Assays: All the tested compounds were prepared as 10 mM DMSO stocks. In the primary screen, the concentrations of the compounds and DMSO were set to 50 μM and 1% (v/v). In the FP competitive inhibition assay, 3 μM human NLRP3 and 5 nM of N-terminally fluorescein-labeled fSAH-POP1-12 were incubated in an assay buffer of 25 mM Hepes (pH 7.4), 100 μg/mL of bovine γ-globulin, and 0.01% Triton-X100 for 15 min at 4° C. Bovine γ-globulin and Triton-X100 were included in the assay buffer to decrease the likelihood of compound acting by aggregate formation and nonspecific binding. Different concentrations of the tested compounds in the assay buffer were added to each test plate to make a final volume of 100 μL. Each assay plate was covered black and gently mixed on an orbital shaker at 4° C. for 1.5 h to reach equilibrium before the polarization values were read. The IC50 value was determined by nonlinear least-square analysis of GraphPad Prism 5.0. The Ki values were derived (Nikolovska-Coleska et al., 2004). Experiments were performed in triplicate and carried out in the presence of 1% DMSO.

[2] = target: GST-ASC^PYD/fSAH-POP1-12 PPI (Homo sapiens, UniProt Q9ULZ3); assay: FP competitive inhibition assay, GST-ASC^PYD/fSAH-POP1-12 PPI
Experimental: as §1

CCOC(=O)c1cc2c([nH]c3ccccc32)c(C(N)=O)n1
Ki [1]: 1500 nM
effect on GST-ASC^PYD/fSAH-POP1-12 PPI [2]: no effect
